Experimental data as given in patent US6117645A, “Human LH-RH receptor expression cells and use thereof” (Takeda Chemical Industries, Ltd., priority 1994, dated 2000).

What was measured:
Type in all cases: cell-based
human LH-RH receptor [1] = biological target: T1, human LH-RH receptor (Homo sapiens, UniProt P30968); experiment: Arachidonic acid release ([3H]arachidonic acid labeling) on LH-RH stimulation of CHO/L39-7 cells; conditions: 37° C., 15 minutes, FIG. 6
T1 construct: cell membrane fraction or whole cells
T1 sequence (P30968 1-328): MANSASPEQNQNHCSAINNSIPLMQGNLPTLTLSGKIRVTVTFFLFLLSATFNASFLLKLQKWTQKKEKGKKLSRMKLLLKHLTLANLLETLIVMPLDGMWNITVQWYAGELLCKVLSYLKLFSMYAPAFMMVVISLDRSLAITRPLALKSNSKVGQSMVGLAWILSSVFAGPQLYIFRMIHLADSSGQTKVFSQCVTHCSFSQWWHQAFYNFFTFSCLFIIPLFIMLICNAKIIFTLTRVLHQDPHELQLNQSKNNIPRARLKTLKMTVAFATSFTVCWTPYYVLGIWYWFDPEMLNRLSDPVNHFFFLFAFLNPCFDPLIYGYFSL
Protocol: The concentration of arachidonic acid was measured by labeling the cells with [^3 H] arachidonic acid. The human LH-RH receptor expression CHO cells (4×10^4 cells) were cultivated on a 24-well plate for 48 hours, and 0.25 μCi per well of [5,6,8,9,11,12,14,15-^3 H] arachidonic acid (Amersham) was added thereto, followed by further cultivation for 24 hours. The cells were washed with an arachidonic acid assay buffer [DMEM medium containing 20 mM HEPES (pH 7.4) and 0.2% BSA], and the same buffer was added thereto, followed by standing at 37° C. for 30 minutes. The medium was changed with 500 μl of the same buffer, and LH-RH was added thereto, followed by standing at 37° C. for 15 minutes. Then, the radioactivity of the supernatant was assayed with an LSC (FIG. 6).

human LH-RH receptor [2] = biological target: T1, human LH-RH receptor; experiment: Inositol phosphate production ([3H]inositol labeling) on LH-RH stimulation of CHO/L39-7 cells; conditions: 37° C., 10 minutes, FIG. 5
Protocol: The concentration of inositol phosphate (IPS) was measured by labeling the cells with [^3 H] inositol. The human LH-RH receptor expression CHO cells (4×10^4 cells) were cultivated on a 24-well plate for 48 hours, and 2.5 μCi per well of myo [2-^3 H] inositol (Amersham) was added thereto, followed by further cultivation for 24 hours. The cells were washed with an IP assay buffer [20 mM HEPES (pH 7.4), 140 mM NaCl, 4 mM KCl, 1 mM NaH2 PO4, 1 mM MgCl2, 1.25 mM CaCl2, 10 mM LiCl, 10 mM glucose, 0.1% BSA], and the same buffer was added thereto, followed by standing at 37° C. for 30 minutes. The medium was changed with 500 μl of the same buffer, and LH-RH was added thereto, followed by reaction at 37° C. for 10 minutes. Then, 100 μl of 10% perchloric acid was added, and the mixture was allowed to stand at 0° C. for 30 minutes. Thereafter, 150 μl of 1.53 M KOH and 75 mM HEPES was added thereto for neutralization. After further standing at 0° C. for 30 minutes, the product was centrifuged, and the supernatant was purified through an anion exchange column (AG1-X8). The column was washed with H2 O and a washing solution (5 mM sodium tetraborate, 60 mM ammonium formate), and then, eluted with 1 M formic acid and 0.1 M ammonium formate. The radioactivity of the eluate was assayed with a liquid scintillation counter (LSC) (FIG. 5).

human LH-RH receptor [3] = biological target: T1, human LH-RH receptor; experiment: Intracellular calcium concentration (fura-2) on LH-RH stimulation of CHO/L39-7 cells; conditions: fura-2 fluorescence ratio 340/380 nm, FIG. 4
Protocol: Changes in intercellular calcium concentration were examined by use of a specific fluorescent material (fura-2). The human LH-RH receptor expression CHO cells were cultivated on a 6-cm dish tiled with cover glass for 3 days. The cells were washed three times with a calcium assay buffer (Hanks' solution containing 0.1% BSA), and 2.5 ml of the same buffer containing 4 μM fura-2 was added thereto, followed by standing at room temperature for 90 minutes. After washing three times with the buffer, the cover glass was transferred to a cuvette, and the assay was conducted with a fluorescence spectrophotometer (FIG. 4).

- release of arachidonic acid (human LH-RH receptor [1]): observed
- production of IPS due to LH-RH stimulation (human LH-RH receptor [2]): observed
- increase of intracellular Ca2+ (human LH-RH receptor [3]): observed
Substance: LH-RH: luteinizing hormone-releasing hormone, a peptide consisting of 10 amino acids; LH-RH receptor agonist
